Drawing on PubChem BioAssay AID504634 (The Scripps Research Institute Molecular Screening Center, 2011), this text covers inhibition for 87 molecules.

Chains of the proteins cited; added tags and fusions are not shown.
UniProt P47898, whole entry, looked up: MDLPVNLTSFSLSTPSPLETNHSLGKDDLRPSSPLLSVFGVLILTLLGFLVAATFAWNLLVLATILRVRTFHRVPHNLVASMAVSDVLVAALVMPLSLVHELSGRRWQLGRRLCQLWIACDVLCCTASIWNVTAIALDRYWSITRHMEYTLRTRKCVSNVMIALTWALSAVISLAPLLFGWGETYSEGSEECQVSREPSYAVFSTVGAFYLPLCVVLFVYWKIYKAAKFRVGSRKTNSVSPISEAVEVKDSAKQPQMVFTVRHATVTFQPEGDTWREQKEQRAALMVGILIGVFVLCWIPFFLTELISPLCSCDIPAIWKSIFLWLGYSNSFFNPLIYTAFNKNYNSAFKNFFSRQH

SMILES strings stand for the structures. Only a part is listed here, and it is no random draw. Active and inactive are the calls of the source. No stated cut-off is given here; in the data, active means inhibition mostly above about 23% (no sharp cut-off); inactive means mostly below about 18%.

This assay deals with 5-hydroxytryptamine receptor 5A (Homo sapiens) (UniProt P47898). In words: HTR5A inverse agonists in luminescence cell assay, primary screen, counter-screen for OPRM1-OPRD1 heterodimer inverse agonist project, full-deck HTS (AID 504634).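 Further: 0% = cells with DMSO and 100% = no-cell wells with DMSO.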 To be noted: HTR5A cell line, inverse agonism, at 9.3 µM, stronger effect = higher value. On the technique in general: Counterscreens check selectivity or assay interference.
With `Cc1ccc2c(c1)C1CN(C)CCC1N2C(=S)Nc1ccc(Cl)cc1Cl` (configuration not stated), the inhibition (in general, the drop in the measured response relative to a control, in per cent) was inactive: 20.5%. For the molecule `CSc1nc(N)nc2c1ncn2CC(=O)NCCCN1CCCC1=O`, the inhibition is inactive: -10.8%. `Cn1c(=O)c2c(nc(NCc3ccccc3)n2CC(N)=O)n(C)c1=O`: the inhibition is inactive: 13.2%. As for `C=CCSc1nnc(NC(=O)Cn2cnc3c2c(=O)n(C)c(=O)n3C)s1`, the figure is inactive: 4.35%; as for `O=P1(N(CCCl)CCCl)Nc2ccccc2N1`, inactive: 3.02%.

For `O=P1(N(CCCl)CCCl)OCCCN1CCCl` (configuration not stated), the inhibition is inactive: 6.11%. The result for `COc1ccc(CNC(=O)CCNC(=O)N2CCn3c2nc2ccccc23)cc1` reads inactive: 0.4%; that for `Cc1cc2ncn(C3CC(=O)N(C)C3=O)c2cc1C` (configuration not stated), inactive: -6.7%; that for `CC(O)CNc1nc2ccccc2n1CC(=O)N1CCN(Cc2ccccc2)CC1` (configuration not stated), inactive: 4.27%. Regarding `CCCCNc1nc2ccccc2n1CC(=O)Nc1c(C)cccc1CC`, the inhibition is inactive: -10.4%. `COc1cccc(NC(=O)[C@@H](NC(=O)N2CCn3c2nc2ccccc23)C(C)C)c1`: the inhibition is inactive: 2.29%.

`COc1cc(I)ccc1[As](=O)(O)O`: the inhibition is inactive: -9.08%. Consider `c1ccc(CN2CCC(Nc3nc(-c4ccccc4)nc4ccccc34)CC2)cc1`, for which the inhibition was inactive: -12.1%. As for `Cc1ccc(/C=N/NC(=O)Cn2cnc3ccccc32)o1`, the figure is inactive: -21.9%; as for `Cn1c(=O)[nH]c(=O)c2c1nc(N1CCCCCC1)n2CCN1CCCCCC1`, inactive: 10.6%. As for `CC(C)N(C(=O)Cn1c(-c2ccccc2Cl)nc2ccccc21)c1ccccc1`, the inhibition is inactive: -0.82%. Take `CCOC(=O)c1cccc(NC(=O)Cn2c(CC(=O)NC)nc3ccccc32)c1`: the inhibition was inactive: 10.3%. For the molecule `CSCC[C@H](NC(=O)N1CCn2c1nc1ccccc12)C(=O)NCc1ccccc1`, the inhibition was inactive: -5.13%. For the molecule `C(=N\c1nc2ccccc2n1CCN1CCCCC1)/c1cccs1`, the inhibition is inactive: -9.5%. As for `Cc1ccc(NC(=O)Cn2cnc3c(OCc4ccccc4)ncnc32)cc1C`, the inhibition is inactive: 5.21%.

On to `Cn1c(=O)[nH]c(=O)c2c1nc(CN1CCN(c3ccc(F)cc3)CC1)n2CCN1CCOCC1`, for which the inhibition is inactive: 33.6%. On to `COc1ccc2nc(NP(=O)(c3ccccc3)c3ccccc3)sc2c1`, for which the inhibition is inactive: 8.62%.

On to `CCCn1c(=O)[nH]c(=O)c2c1nc(-c1ccc3c(c1)OCCO3)n2CCN1CCOCC1`, for which the inhibition was inactive: -30.4%. With `Cc1c2c(nc3ccccc13)SC(C(Cl)Cl)C2` (configuration not stated), the inhibition is inactive: 19.6%. `O=C(CCCCCNC(=O)N1CCn2c1nc1ccccc12)N[C@@H](C(=O)O)c1ccccc1`: the inhibition is inactive: 13.9%. As for `Cc1ccc(S(=O)(=O)N2CCCCC2)cc1NC(=O)Cn1cnc2c1c(=O)n(C)c(=O)n2C`, the inhibition is inactive: 12.8%. Regarding `NC(=O)CS(=O)(=O)c1nc2ccccc2n1CC(=O)N1CCCCC1`, the inhibition was inactive: -2.11%. In the case of `Cc1ccccc1Oc1ccc2c(c1)[C@@H]1C[C@H](N(C)C(=O)c3ccc(C#N)cc3)[C@H]([C@H](C)O)C(=O)N1CC2`, the inhibition was inactive: 12.1%. As for `NC(=O)CC(NC(=O)Cc1ccc(Br)cc1)c1ccc(NC2CCN(Cc3ccccc3)CC2)c([N+](=O)[O-])c1` (configuration not stated), the inhibition is inactive: -6.55%. Consider `O=C(Cn1cnc2ccccc21)NC(c1ccccc1)c1ccccc1`, for which the inhibition is inactive: -17.5%.

Take `CCn1cc(C(=O)N2CCn3c(nc4ccccc43)C2)c(=O)c2ccc(C)nc21`: the inhibition was inactive: -37.7%. Consider `Cn1c(=O)c2c(nc(Cl)n2CC(=O)N2CCCCC2)n(C)c1=O`, for which the inhibition was inactive: -9.56%. Regarding `Cc1cc(=O)[nH]c(N[N+](=O)[O-])n1`, the inhibition was inactive: 5.67%.

In the case of `c1ccc2c(c1)ncn2CCN1CCCCC1`, the inhibition is inactive: 9.48%. As for `Cn1c(=O)c2c(ncn2CC(=O)Nc2nccs2)n(C)c1=O`, the figure is inactive: -3.44%. As for `O=C(Cn1cnc2c(NCc3ccccc3)ncnc21)NCCCN1CCCC1=O`, the figure is inactive: 5.6%; as for `O=C(OC1CN2CCC1CC2)C12CC3CC(CC(C3)C1)C2` (configuration not stated), inactive: -10.3%. For the molecule `O=C1C2CCCCC2C(=O)N1c1ccc(NC2CCN(Cc3ccccc3)CC2)c([N+](=O)[O-])c1` (configuration not stated), the inhibition was inactive: 1.22%. As to `CC(C)(C)NC(=O)Cn1c(SCC(=O)NC2CC2)nc2ccccc21`, the inhibition is inactive: -34.7%. Regarding `CSc1nc(N)nc2c1ncn2CC(=O)NCc1ccc2c(c1)OCO2`, the inhibition is inactive: -17.2%. `Cc1ccc(Cn2nnnc2CN2CCC(n3nnc4cc(C(F)(F)F)ccc43)CC2)cc1`: the inhibition is inactive: 5.91%. On to `Cc1ccc(-c2csc(NCCn3c(-c4ccncc4)nc4cc(C(F)(F)F)ccc43)n2)cc1`, for which the inhibition is inactive: -10%. As for `Nc1nonc1-c1nc2ccccc2n1CC(=O)NC1CCCC1`, the inhibition is inactive: -23.6%.

As to `O=C(O)CCc1nn2c3ccccc3n(CCN3CCCCC3)c2nc1=O`, the inhibition was inactive: -19.9%. On to `Cc1cnc(NC(=O)Cn2cnc3c2c(=O)n(C)c(=O)n3C)s1`, for which the inhibition was inactive: -35.7%. As for `CCN(CC)c1ccc(CNc2nc3ccccc3n2CCN2CCOCC2)cc1`, the inhibition was inactive: 2.81%. With `O=C(Cn1c(NCCO)nc2ccccc21)Nc1cccc(S(=O)(=O)N2CCCC2)c1`, the inhibition is inactive: -25.1%. For `Cc1ccc(S(=O)(=O)Nc2ccc(Cl)cc2)cc1NC(=O)Cn1cnc2c1c(=O)n(C)c(=O)n2C`, the inhibition is inactive: -14%.

Consider `CC(C)NC(=O)CSc1nc2ccccc2n1CC(=O)N(C(C)C)C(C)C`, for which the inhibition is inactive: -33.9%. `Cc1ccc2c(c1)C1CN(C)CCC1N2C(=O)c1ccco1` (configuration not stated): the inhibition was inactive: 11.3%. Take `NC(=O)CC(NC(=O)c1cccc(Br)c1)c1ccc(NC2CCN(Cc3ccccc3)CC2)c([N+](=O)[O-])c1` (configuration not stated): the inhibition is inactive: -2.05%. With `N=c1n(CCN2CCCCC2)c2ccccc2n1CC(O)c1ccc(Cl)c(Cl)c1` (configuration not stated), the inhibition was inactive: 9.72%. With `COC(=O)[C@H](Cc1ccc(O)cc1)NC(=O)Cn1cnc2c(SC)nc(N)nc21`, the inhibition was inactive: -22%. With `CC(C)[Si]1(C(C)C)OCC2OC(n3cnc4c(N)ncnc43)C(N)C2O[Si](C(C)C)(C(C)C)O1` (configuration not stated), the inhibition is inactive: -22.6%. As for `COc1cc(NC(=O)[C@@H](NC(=O)N2CCn3c2nc2ccccc23)C(C)C)cc(OC)c1`, the figure is inactive: 0.22%.

For the molecule `Nc1nonc1-c1nc2ccccc2n1CC(=O)N1CCN(c2ccc(F)cc2)CC1`, the inhibition is inactive: -22.7%. Consider `CN(c1ccccc1)S(=O)(=O)c1cccc(NC(=O)Cn2cnc3c2c(=O)n(C)c(=O)n3C)c1`, for which the inhibition was inactive: 8.79%.

For `CN(C)CCn1c(=N)n(CC(O)c2ccc(Cl)c(Cl)c2)c2ccccc21` (configuration not stated), the inhibition is inactive: -16.6%. `Cc1ccc(CNC(=O)Cn2cnc3c(OCc4ccccc4)ncnc32)o1`: the inhibition was inactive: -2.46%.

On to `O=[N+]([O-])c1cc(Oc2ccc([N+](=O)[O-])cc2C(F)(F)F)cc([N+](=O)[O-])c1`, for which the inhibition was inactive: 1.97%. `COc1cc(NC(=O)Cn2cnc3c(NCc4ccccc4)ncnc32)cc(OC)c1OC`: the inhibition was inactive: -7.11%.

For `Cc1cc2ncn(C3CC(=O)N(Cc4ccccc4)C3=O)c2cc1C` (configuration not stated), the inhibition is inactive: -2.46%. Consider `c1ccc2c(c1)nc1n2CCN1CCNC1CCCCC1`, for which the inhibition is inactive: 18.8%.

Consider `O=C(Cn1cnc2c(OCc3ccccc3)ncnc21)NCc1ccccn1`, for which the inhibition is inactive: 4.42%.

On to `Cn1c(=O)c2ncn(CC(=O)Nc3cccc(-c4nc5ccccc5s4)c3)c2n(C)c1=O`, for which the inhibition was inactive: 7.29%. For the molecule `CCN(CC)S(=O)(=O)c1ccc(OC)c(NC(=O)Cn2cnc3c2c(=O)n(C)c(=O)n3C)c1`, the inhibition was inactive: -1.64%. The result for `COc1ccc(N/C(=N/P(=O)(N2CCOCC2)N2CCOCC2)N2CCOCC2)cc1` reads inactive: -2.01%.

Consider `CN(C)C(=O)Cn1c(SCC(=O)NCc2ccc3c(c2)OCO3)nc2ccccc21`, for which the inhibition is inactive: 10.7%. In the case of `Brc1ccc(CNc2nc3ccccc3n2CCN2CCCCC2)cc1`, the inhibition was inactive: 11%. As to `COc1ccc(/C=N/NC(=O)Cn2c(Cc3ccc(OC)c(OC)c3)nc3ccccc32)cc1`, the inhibition is inactive: 18.4%. Regarding `CC(Cc1ccc(O)cc1)NCC(O)c1cc(O)cc(O)c1` (configuration not stated), the inhibition is inactive: -1.79%.

For the molecule `Cc1ccc(OP(=O)(Nc2ccc([N+](=O)[O-])cn2)Oc2ccc(C)cc2)cc1`, the inhibition is inactive: -9.49%.

Consider `Fc1ccc2c(c1)nnn2C1CCN(Cc2ccccc2)CC1`, for which the inhibition is inactive: 5.32%. Consider `COC(=O)[C@H](CCSC)NC(=O)Cn1cnc2c(NCc3ccccc3)ncnc21`, for which the inhibition is inactive: 0.95%.

As for `Cn1c(=O)c2c(nc(N3CCOCC3)n2CCNC2=NCCC2)n(C)c1=O`, the inhibition is inactive: -0.99%.

On to `COc1ccc(S(=O)(=O)N2CCCCC2)cc1NC(=O)Cn1cnc2c1c(=O)n(C)c(=O)n2C`, for which the inhibition was inactive: -6.9%. As to `O=C(Cn1c(C(F)(F)F)nc2ccccc21)N/N=C/c1ccco1`, the inhibition was inactive: 7.66%. In the case of `CCOC(=O)Cn1c(=O)c2c(nc3n2CCN3Cc2ccccc2)n(C)c1=O`, the inhibition is inactive: 11.1%.

With `CN(C)CCn1cnc2c1c(=O)n(C)c(=O)n2C`, the inhibition is inactive: 5.75%. In the case of `CSc1nc(N)nc2c1ncn2CC(=O)N[C@H](C)c1cccc2ccccc12`, the inhibition was inactive: -8.76%. In the case of `Cc1ccc2nc3c(c(C)c2c1)CC(C(Cl)Cl)S3` (configuration not stated), the inhibition is inactive: 15.5%. With `COc1ccc(CCNC(=O)[C@H](CCSC)NC(=O)N2CCn3c2nc2ccccc23)cc1OC`, the inhibition was inactive: -18.8%. Take `N=c1n(CCCOc2ccc(Br)cc2)c2ccccc2n1CC(N)=O`: the inhibition was inactive: 1.96%.

On to `Cc1ccc2c(c1)C1CN(C)CCC1N2S(=O)(=O)c1ccccc1F` (configuration not stated), for which the inhibition was inactive: 2.91%. On to `CC(C)CN(C(=O)Cn1c(Cl)nc2c1c(=O)n(C)c(=O)n2C)C1CCS(=O)(=O)C1` (configuration not stated), for which the inhibition was inactive: 2.9%. Regarding `COc1ccc(NC(=O)Cn2c(NCC(C)O)nc3ccccc32)cc1Cl` (configuration not stated), the inhibition was inactive: 16.1%. `O=C(Cn1c2[n+](c3ccc(C(F)(F)F)cc31)CCCCC2)Nc1ccc(Br)cc1`: the inhibition is inactive: 8.29%.
